Here are results for ten compounds from ChEMBL document CHEMBL1137783 (J Med Chem, 2009).

Sequences of proteins named here, by UniProt entry; tags and fusion partners are left off. A change or cut given only in a name is not applied to a line headed by its entry.
UniProt Q12809: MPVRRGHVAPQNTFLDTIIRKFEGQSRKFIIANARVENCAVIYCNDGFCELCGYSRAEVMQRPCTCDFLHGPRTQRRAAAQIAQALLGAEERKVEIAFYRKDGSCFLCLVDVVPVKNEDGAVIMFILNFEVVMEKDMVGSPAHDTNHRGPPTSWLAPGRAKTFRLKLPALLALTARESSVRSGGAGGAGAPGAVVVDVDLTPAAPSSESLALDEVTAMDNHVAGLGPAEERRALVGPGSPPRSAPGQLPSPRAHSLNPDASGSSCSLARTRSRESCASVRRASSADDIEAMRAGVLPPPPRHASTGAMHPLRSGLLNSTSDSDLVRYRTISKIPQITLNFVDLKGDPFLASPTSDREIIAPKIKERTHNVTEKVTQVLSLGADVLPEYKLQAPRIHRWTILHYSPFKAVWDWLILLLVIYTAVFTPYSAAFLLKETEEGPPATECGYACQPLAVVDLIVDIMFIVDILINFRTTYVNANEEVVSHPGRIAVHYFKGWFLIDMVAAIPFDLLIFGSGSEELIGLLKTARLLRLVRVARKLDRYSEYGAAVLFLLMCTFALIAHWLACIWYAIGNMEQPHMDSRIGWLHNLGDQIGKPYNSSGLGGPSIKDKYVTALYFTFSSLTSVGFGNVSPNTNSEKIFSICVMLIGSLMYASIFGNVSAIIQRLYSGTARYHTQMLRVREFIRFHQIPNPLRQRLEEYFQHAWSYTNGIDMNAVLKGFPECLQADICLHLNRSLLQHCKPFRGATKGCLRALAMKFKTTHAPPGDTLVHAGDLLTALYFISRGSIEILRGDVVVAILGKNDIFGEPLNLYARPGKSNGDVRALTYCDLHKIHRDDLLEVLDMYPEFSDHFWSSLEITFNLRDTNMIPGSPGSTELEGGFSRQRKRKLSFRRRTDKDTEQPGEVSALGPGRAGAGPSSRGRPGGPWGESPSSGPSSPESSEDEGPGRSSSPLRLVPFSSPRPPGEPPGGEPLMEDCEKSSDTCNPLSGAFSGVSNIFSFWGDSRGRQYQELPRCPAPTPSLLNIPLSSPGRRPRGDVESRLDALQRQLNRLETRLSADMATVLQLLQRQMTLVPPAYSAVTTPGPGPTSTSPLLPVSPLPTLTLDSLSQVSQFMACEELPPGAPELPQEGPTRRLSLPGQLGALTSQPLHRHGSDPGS

Series [1] addresses Voltage-gated inwardly rectifying potassium channel KCNH2 (Homo sapiens, UniProt Q12809). In words: (§1) Inhibition of human ERG channel.
A further series concerns the target hERG (KCNH2) (Homo sapiens, UniProt Q12809). Described as §1. The following applies: human.

The Ki is a measure of affinity in units of concentration, obtained from inhibition or displacement. A high value points to a looser hold on the target. On to `F[C@@H]1CCNC[C@H]1c1c(-c2ccccc2)[nH]c2ccccc12`, for which the Ki in series [1] is 1.1 µM.

One may read the IC50 as the concentration needed to halve the response being measured. High values mean a need for much substance, low ones inhibition by little substance. `CC(C)(C)OC(=O)NCCCN(Cc1cncn1Cc1ccc(C#N)cc1)[C@H]1CCN(Cc2ccccc2)C1=O`: half-maximal inhibition in series [1] (IC50) required 0.11 µM.

Consider `CN1CCCCC1c1c(-c2ccccc2)[nH]c2ccccc12` (stereo not given), for which the Ki at hERG (KCNH2) was 7 µM.

Turning to `COC(=O)c1[nH]c2cc(F)ccc2c1[C@@H]1CNCC[C@H]1F`, the affinity at hERG (KCNH2), expressed as Ki, was 8.2 µM.

Consider `N#Cc1ccc(Cn2cncc2CN[C@H]2CCN(C(=O)c3cccc(Cl)c3)C2=O)cc1`, for which, in series [1], the concentration for half-maximal inhibition (IC50) is 5.8 µM.

At hERG (KCNH2), `c1ccc(-c2[nH]c3ccccc3c2C2CCCNC2)cc1` (stereo not given) showed an inhibition constant (Ki) of 4.9 µM.

Turning to `Fc1ccc2c([C@@H]3CNCC[C@H]3F)c(C3CCCCC3)[nH]c2c1`, the inhibition constant (Ki) on hERG (KCNH2) was 5.4 µM.

The pIC50 is the negative decadic logarithm of the IC50, by convention in mol/L. High values mean a small IC50, low ones a large IC50. For the compound `CNCCCN1c2ccccc2CCc2ccccc21` [DESIPRAMINE], the pIC50 in series [1] (human) was determined as 5.857.

In turn, `O=C1Cc2cc(CCN3CCN(c4nsc5ccccc45)CC3)c(Cl)cc2N1` [ZIPRASIDONE] returned a half-maximal inhibitory concentration (IC50) in series [1] of 0.125 µM.

On hERG (KCNH2), `Fc1ccc2c([C@@H]3CNCC[C@H]3F)c(-c3cccnc3)[nH]c2c1` gave a Ki of 2.5 µM.
